The list shows a part of the results, in another mix than the full data. Results filed as inconclusive are left out. Active and inactive are the calls of the source. Calls come from the whole dose curve; as a rule, active = well fitted inhibition curve with a large enough effect; inconclusive = small, poorly fitted or top-dose-only effect; inactive = no such curve, though single readings can be large or run the other way.

Protein sequences, listed by entry. Tags and fused reporters are not part of them.
UniProt O95398, whole entry: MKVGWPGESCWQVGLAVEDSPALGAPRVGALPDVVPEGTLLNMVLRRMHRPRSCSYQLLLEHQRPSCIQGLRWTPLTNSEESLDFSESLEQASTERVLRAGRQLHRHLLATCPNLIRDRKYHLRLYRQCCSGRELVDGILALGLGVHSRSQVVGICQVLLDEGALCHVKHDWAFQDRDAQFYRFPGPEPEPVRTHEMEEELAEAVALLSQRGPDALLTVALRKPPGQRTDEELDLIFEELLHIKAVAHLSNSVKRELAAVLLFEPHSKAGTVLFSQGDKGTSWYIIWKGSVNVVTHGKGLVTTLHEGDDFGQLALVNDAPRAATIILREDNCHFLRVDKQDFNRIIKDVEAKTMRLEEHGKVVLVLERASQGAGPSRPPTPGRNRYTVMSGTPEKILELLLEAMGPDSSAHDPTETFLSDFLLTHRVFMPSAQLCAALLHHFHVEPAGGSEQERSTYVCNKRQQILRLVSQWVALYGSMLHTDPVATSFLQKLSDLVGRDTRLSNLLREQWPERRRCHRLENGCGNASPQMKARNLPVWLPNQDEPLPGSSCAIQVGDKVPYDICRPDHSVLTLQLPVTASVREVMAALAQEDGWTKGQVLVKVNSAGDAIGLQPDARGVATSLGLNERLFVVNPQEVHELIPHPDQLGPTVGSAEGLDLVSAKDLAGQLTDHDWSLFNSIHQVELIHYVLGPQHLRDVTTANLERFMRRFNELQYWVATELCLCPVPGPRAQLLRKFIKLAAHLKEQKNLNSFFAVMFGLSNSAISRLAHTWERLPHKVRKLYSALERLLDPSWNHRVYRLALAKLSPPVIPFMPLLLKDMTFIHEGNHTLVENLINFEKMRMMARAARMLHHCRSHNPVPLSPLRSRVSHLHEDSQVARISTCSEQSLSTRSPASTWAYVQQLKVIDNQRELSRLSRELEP

Experimental findings from PubChem BioAssay AID720709 (National Center for Advancing Translational Sciences (NCATS), 2013) are described below.

This experiment concerns the target Rap guanine nucleotide exchange factor 3 (Homo sapiens) (UniProt O95398). As to the kind of experiment: qHTS for Antagonist of cAMP-regulated guanine nucleotide exchange factor 3 (EPAC1): primary screen.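 Note: plate controls were vehicle for no effect and positive control for full effect; nearly all actives have a fitted effect of over 50% in size.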 The conditions noted are these: EPAC1 GEF assay, Rap1b-BODIPY-GDP exchange fluorescence; at 115 µM (top of the series). (In general: qHTS replaces the single test concentration by a dilution series.)
On to `CCCCn1nnnc1C(c1cc2ccccc2o1)N1CCC(n2c(=O)[nH]c3ccccc32)CC1` (stereo not given), for which the activity change, negative = inhibition is inactive: 0.234%. For the molecule `O=P1(N(CCCl)CCCl)SCCCS1`, the activity change, negative = inhibition is inactive: -7.02%. Consider `CCCCOc1ccc(C(=O)NCC2(N3CCOCC3)CCCCC2)cc1`, for which the activity change, negative = inhibition is inactive: -16.1%. Under `COc1ccc(NC2CCN(CCc3ccccc3)CC2)c(OC)c1` stands inactive: -0.291%; under `CCOC(=O)N1CCC(Nc2ccc(F)cc2)CC1`, inactive: -2.09%. On to `CC(C)(C)n1nnnc1C(c1ccccc1)N1CCC(n2c(=O)[nH]c3ccccc32)CC1` (stereo not given), for which the activity change, negative = inhibition was inactive: 0.141%. Under `O=C1CCN(Cc2ccccc2)CC1` stands inactive: 3.19%. Under `CCOc1ccc(C)cc1CN(CCCl)CCCl` stands inactive: -26.5%; under `O=C(OC1CN2CCC1CC2)C1c2ccccc2Oc2ccccc21` (stereo not given), inactive: -6.33%. In the case of `O=c1[nH]c2ccccc2n1C1CCN(C(c2cc3ccccc3o2)c2nnnn2C2CCCCC2)CC1` (stereo not given), the activity change, negative = inhibition is inactive: 6.76%. On to `O=C(NCC1(N2CCCCC2)CCCCC1)c1ccc(Cl)s1`, for which the activity change, negative = inhibition is inactive: 12.9%.

As for `N#CC1(Nc2ccccc2)CCN(Cc2ccccc2)CC1`, the activity change, negative = inhibition was inactive: -8.15%. As for `O=C1C(O)=C([N+](=O)[O-])C(=O)C(O)=C1[N+](=O)[O-]`, the activity change, negative = inhibition is inactive: -3.28%. As to `COc1ccc(Cl)cc1C(=O)NCC1(N2CCOCC2)CCCCC1`, the activity change, negative = inhibition was inactive: -8.01%.

As for `CCOC(=O)N1CCC(Nc2ccc(OC)cc2)CC1`, the activity change, negative = inhibition is inactive: -1.31%.

Turning to `CCCCn1nnnc1C(c1ccc(OC)cc1)N1CCC(n2c(=O)[nH]c3ccccc32)CC1` (stereo not given), the activity change, negative = inhibition was inactive: -16.3%. Then `O=c1[nH]c2ccccc2n1C1CCN(C(c2ccccc2OC(F)(F)F)c2nnnn2C2CCCCC2)CC1` (stereo not given), with inactive: -2.74%; and `O=C(NCC1(N2CCCCC2)CCCCC1)c1ccc(Cl)nc1`, with inactive: -7.39%; and `Cc1cc(C)cc(N(C(=O)c2ccccc2)C2CCN(C(=O)OC(C)(C)C)CC2)c1`, with inactive: -21.4%. Consider `O=C(NCC1(N2CCOCC2)CCCCC1)c1cc2ccccc2o1`, for which the activity change, negative = inhibition is inactive: 6.48%. Under `CSc1ccccc1C(=O)NCC1(N2CCCCC2)CCCCC1` stands inactive: 0.0909%; under `Cc1cccc(NC2(C#N)CCN(Cc3ccccc3)CC2)c1`, inactive: -3.43%. Regarding `COc1ccc(C(=O)NCC2(N3CCCCC3)CCCCC2)cc1`, the activity change, negative = inhibition is inactive: 4.04%. On to `CCC(c1nnnn1C1CCCC1)N1CCC(n2c(=O)[nH]c3ccccc32)CC1` (stereo not given), for which the activity change, negative = inhibition is inactive: -6.8%. Then `CC(C)(C)OC(=O)N1CCC(N(C(=O)c2ccccc2)c2ccc(F)cc2)CC1`, with inactive: 8.95%; and `COc1ccc(C(=O)NCC2(N3CCCCC3)CCCCC2)c(OC)c1OC`, with inactive: -15.1%. Then `O=C(NCC1(N2CCCCC2)CCCCC1)c1ccc(=O)[nH]c1`, with inactive: 22.2%; and `CCCCn1nnnc1C(c1cccs1)N1CCC(n2c(=O)[nH]c3ccccc32)CC1` (stereo not given), with inactive: -24.1%. Under `O=C(NCC1(N2CCCCC2)CCCCC1)c1cccs1` stands inactive: -7.72%. For `CCCCn1nnnc1C(CC)N1CCC(n2c(=O)[nH]c3ccccc32)CC1` (stereo not given), the activity change, negative = inhibition is inactive: 6.64%.
